# Test results from US7739055B2, “Methods and systems for generating and evaluating peptides” (priority 2005, dated 2010).
# Settings: in words
smiles,measurement,value
CC[C@H](C)[C@H](NC(=O)[C@@H](NC(=O)[C@H](CS)NC(=O)[C@H](C)NC(=O)[C@H](CCCCN)NC(=O)[C@H](CO)NC(=O)[C@H](CCCCN)NC(=O)[C@H](CCCCN)NC(=O)[C@@H](NC(=O)[C@H](Cc1ccccc1)NC(=O)[C@@H](NC(=O)CNC(=O)[C@H](CC(C)C)NC(=O)[C@@H](NC(=O)[C@H](CO)NC(=O)CNC(=O)CN)[C@@H](C)O)C(C)C)C(C)C)C(C)C)C(=O)N[C@H](C(=O)N1CCC[C@H]1C(=O)N[C@@H](Cc1ccc(O)cc1)C(=O)O)C(C)C,solubility,Not soluble
